Drawing on patent publication US8877745B2, “CCR2 receptor antagonists, method for producing the same, and use thereof as medicaments” (Boehringer Ingelheim International GmbH, priority 2010, dated 2014), this text covers Ki for two compounds.

Amino acid sequences for entries named in this document (tags omitted).
UniProt P41597, whole entry: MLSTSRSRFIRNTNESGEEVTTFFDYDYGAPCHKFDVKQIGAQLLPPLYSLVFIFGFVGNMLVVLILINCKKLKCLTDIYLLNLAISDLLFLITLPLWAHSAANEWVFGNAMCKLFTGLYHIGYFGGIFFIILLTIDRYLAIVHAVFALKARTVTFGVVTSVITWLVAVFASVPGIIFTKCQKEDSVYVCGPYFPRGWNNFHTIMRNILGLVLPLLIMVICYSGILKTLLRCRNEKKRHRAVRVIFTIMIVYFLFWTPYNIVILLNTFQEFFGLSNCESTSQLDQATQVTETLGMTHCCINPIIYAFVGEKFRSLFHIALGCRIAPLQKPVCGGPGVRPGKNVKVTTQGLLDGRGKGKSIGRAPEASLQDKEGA

Molecules are shown by their SMILES.

This assay concerns the target CCR2 (Homo sapiens, UniProt P41597). Nature of the assay: CCR2 receptor membrane binding assay ([125I]MCP-1, THP-1 cell membranes, SPA beads). The note with it: read-out: hKi; THP-1 membranes, [125I]MCP-1, bound radioactivity determined after 8 h. The procedure: The above exemplary substances have been tested for binding to CCR2 using a binding assay as outlined herein below:
THP-1 cells (human acute monocytic leukaemia cells) were cultured under standardized conditions at 37° C. and 5% CO2 in a humidified incubator. THP-1 cells were cultivated in RPMI 1640 medium (Gibco 21875) containing 1% MEM-NEAA (Gibso 11140) 2 mM L-glutamine, 1.5 g/L sodium bicarbonate, 4.5 g/L glucose, 10 mM HEPES and 1.0 mM sodium pyruvate, 90%; 10% fetal calf serum (FCS Gibco 10500-064).
Membranes were prepared from THP-1 cells. THP-1 cells were centrifuged at 300×g at 4° C. for 10 min. The cell pellet was resuspended in Phosphate Buffer Saline (PBS, including 10 μM Pefabloc and a protease inhibitor mix ‘complete’, Boehringer Mannheim (1 tablet/50 ml)), to a concentration of […]. The membrane preparation was performed by disrupting the cells by nitrogen […] (at 50 bar, for 1 h) in a “Nitrogen Bombe” (Parr Instrument). […]
Perkin Elmer NEX 332 Jod 125 MCP-1, Stock: 2200 Ci/mmol solved in […] assay buffer, stored at −20° C. […] Bound radioactivity was determined by scintillation counter after 8 h. Determination of affinity of test compounds (dissociation constant hKi) is calculated by iterative fitting of experimental data using the “easy sys” program, which is based on law of mass action (Schittkowski K. (1994), Numerische Mathematik, Vol. 68, 129-142).

Turning to `Cc1c(C(=O)N2CCC(N[C@@H]3CCOC[C@@H]3F)CC2)nc(C2CC2)nc1N1CCc2ccc(C(F)(F)F)cc2C1` (relative stereo) [69u], the Ki was 3 nM.
Under `Cc1c(C(=O)N2CCC(N[C@@H]3CCOC[C@@H]3F)CC2)nc(C2CC2)nc1N1CCc2ccc(C(F)(F)F)cc2C1` (relative stereo) [69t] stands 2 nM.
